The text below walks through data of patent US7291628B2, “Treatment of cocaine abuse using N-substituted derivatives of morphinan” (McLean Hospital Corporation, priority 2001, dated 2007).

This data set has as its system brain opioid receptors. The conditions noted are these: baboon, intravenous, 1.09 mCi, SPECT.

With “[123-I] (−)-3-hydroxy-N-(E)-iodoallylmor [[123-I]-MCL-118]”, the “washout from all areas of the brain” value was “almost completely washed out in 4 hours”. Moreover, the “time to high uptake in brain areas with the highest concentration of kappa and mu receptors” value (OC, thalamus, brain stem, CC, PC) was 15 to 30 min.
